The source of these data is patent US20260382572A1, “TREATMENT OF FRONTOTEMPORAL DEMENTIA OR FRONTOTEMPORAL LOBAR DEMENTIA” (published 2026).

SMILES strings stand for the structures.

Tested on in the first series: not listed separately
The series is described as follows: PAMPA-BBB in vitro blood-brain barrier permeation assay. The conditions noted are these: printed in brackets below Pe. The text has this: The in vitro blood-brain barrier permeation assay (PAMPA-BBB) was used for predicting the brain penetration of compounds, following a described method [Herrera-Arozamena, Clara et al. “Resveratrol-Based MTDLs to Stimulate Defensive and Regenerative Pathways and Block Early Events in Neurodegenerative Cascades.” Journal of medicinal chemistry vol. 65, 6 (2022): 4727-4751. doi:10.1021/acs.jmedchem.lc01883]. The results are given as the mean±SD. In each experiment, 11 quality control standards of known BBB permeability were included to validate the analysis set.
In the case of `Clc1ccc2[nH]c(-c3c[nH]c4ccc(Cl)cc34)cc2c1`, the “PAMPA-BBB classification (cns+)” value is “(cns+)”.

As for `Clc1ccc2c(c1)CC(c1c[nH]c3ccc(Cl)cc13)N2` (centres unmarked), the “PAMPA-BBB classification (cns+)” value is recorded as “(cns+)”. `COc1ccc2[nH]c(-c3c[nH]c4ccc(OC)cc34)cc2c1`: the “PAMPA-BBB classification (cns+)” value was “(cns+)”. Still for that read-out and setting: with `COc1cccc2c1NC(c1c[nH]c3c(OC)cccc13)C2` (centres unmarked) the entry was “(cns+)”; with `C#CCN1c2ccc(OC)cc2CC1c1cn(CC#C)c2ccc(OC)cc12` (centres unmarked), “(cns+)”. Turning to `FC(F)(F)c1ccc2c(c1)CC(c1c[nH]c3ccc(C(F)(F)F)cc13)N2` (centres unmarked), the “PAMPA-BBB classification (cns+)” value is given as “(cns+)”.

As to `c1ccc2c(c1)CC(c1c[nH]c3ccccc13)N2` (centres unmarked), the “PAMPA-BBB classification (cns+)” value is reported as “(cns+)”.

The next series deals with hyperphosphorylated tau in primary cultures of neurons expressing human tau with P301L mutation. The series is described as follows: Hyperphosphorylated tau (AT8) in primary neuronal cultures treated with AAV-hTauP301L. The conditions noted are these: added every other day for 8 days, compound 1 at 30 μM. The text has this: FIG. 6. Compound 1 reduces hyperphosphorylated tau species and tau seeding in vitro. Compound 1 reduces hyperphosphorylated tau levels (AT8) in primary neuronal cultures of mice after 8 days of AVV-hTauP301L treatment. Dimethyl fumarate was used as a positive control (DMF). (A) Representative images, AT8 is shown in green and Map2, marker of neurons, is shown in white. […] Compound 1 reduced tau seeding in HEK-293 tau FRET biosensor measured by flow cytometer (C). Tg4510 mouse brain homogenate was used as aggregant stimuli. […] Data represent mean±SEM.
Immunofluorescence labelling in in vitro and in vivo samples was performed as described in [Luengo, Enrique et al. “Implication of type 4 NADPH oxidase (NOX4) in tauopathy.” Redox biology vol. 49 (2022): 102210. doi:10.1016/j.redox.2021.102210].
Example 2.4. Compound 1 reduces levels of pathological hyperphosphorylated tau in primary cultures of neurons expressing human tau protein with P301L mutation. At day 10 after culture, neurons were treated with PBS or AAV-hTauP301L, and thereafter compound 1 (30 μM) was added every other day for 8 days. At the end of the experiment (day 18), neurons were fixed in 2% paraformaldehyde (Sigma-Aldrich) for 15 minutes. Thereafter, hyperphosphorylated tau levels were evaluated by immunofluorescence using AT8 antibody (FIG. 6A). […]
As to `COC(=O)/C=C/C(=O)OC`, the AT8 intensity levels entry is listed as “reduced AT8 intensity levels”.
